{"source": "ChEMBL document CHEMBL1156785", "about": "“Discovery of 4-[(2S)-2-{[4-(4-chlorophenoxy)phenoxy]methyl}-1-pyrrolidinyl]butanoic acid (DG-051) as a novel leukotriene A4 hydrolase inhibitor of leukotriene B4 biosynthesis” (J Med Chem, 2010)", "key": {"[1]": {"target": "T1, Leukotriene A-4 hydrolase (Homo sapiens, UniProt P09960)", "T1 sequence (P09960 whole entry)": "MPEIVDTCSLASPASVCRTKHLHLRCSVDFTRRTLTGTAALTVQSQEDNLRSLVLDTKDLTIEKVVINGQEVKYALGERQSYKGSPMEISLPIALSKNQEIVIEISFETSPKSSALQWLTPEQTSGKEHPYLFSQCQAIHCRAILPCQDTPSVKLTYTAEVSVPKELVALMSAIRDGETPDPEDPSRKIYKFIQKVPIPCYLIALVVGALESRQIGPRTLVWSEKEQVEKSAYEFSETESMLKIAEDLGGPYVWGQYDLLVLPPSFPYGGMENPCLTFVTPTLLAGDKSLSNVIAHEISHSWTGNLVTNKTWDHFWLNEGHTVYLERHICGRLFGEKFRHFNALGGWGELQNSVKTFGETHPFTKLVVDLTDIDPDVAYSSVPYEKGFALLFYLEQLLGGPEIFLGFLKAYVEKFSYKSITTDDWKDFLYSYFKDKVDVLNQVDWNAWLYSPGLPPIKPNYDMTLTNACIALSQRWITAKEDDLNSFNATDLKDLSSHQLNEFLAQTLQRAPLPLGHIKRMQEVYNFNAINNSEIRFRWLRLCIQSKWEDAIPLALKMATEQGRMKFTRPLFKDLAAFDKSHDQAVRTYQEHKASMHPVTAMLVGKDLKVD"}, "[2]": {"target": "T1, Leukotriene A-4 hydrolase", "assay": "Binding affinity to human recombinant LTA4H by isothermal calorimetry"}}, "note": "pIC50, pKd: −log10 of the molar value."}
{"smiles": "O=C(c1ccncc1)c1ccc(F)cc1", "values": [{"measurement": "pIC50", "setting": "[1]", "result": 2.27}]}
{"smiles": "O=C(c1ccncc1)c1ccc(OCCN2CCCC2)cc1", "values": [{"measurement": "pIC50", "setting": "[1]", "result": 3.70}]}
{"smiles": "O=C(O)CCCN1CCC[C@H]1COc1ccc(Oc2ccc(Cl)cc2)cc1", "values": [{"measurement": "pKd", "setting": "[2]", "result": 7.60}, {"measurement": "pIC50", "setting": "[1]", "result": 7.33}]}
{"smiles": "c1ccc(Cc2ccc(OC[C@H]3CCCN3)cc2)cc1", "values": [{"measurement": "pIC50", "setting": "[1]", "result": 7.06}]}
